Assay results from patent US20260168007A1, “Methods and Devices for Detecting Mechanical Forces Using Cas Nuclease and Guide RNA Complexes” (Emory University, priority 2022, published 2026).

Test system: human platelets
Test: MCATS assay of human platelet forces on Ttol=12 pN surface
Conditions: healthy donor and CPB donors before and after surgery

SMILES: CC(=O)Oc1ccccc1C(=O)O [aspirin]
- influence of CPB surgery on mechano-IC50: did not influence the mechano-IC50 significantly
